HCMV UL50-53 inh = disrupts HCMV UL50-UL53 complex binding | HTRF UL50-UL53 interaction, normalized percent inhibition | inhibition, % (test concentration not listed) | actives 0.15% (n = 190,000); in the data active = inhibition above about 27%, passing the limit was not always enough
GIV-Gai inh = GIV-Galpha-i interaction inhibition; P08753; Galpha-i3/FITC-GIV peptide fluorescence polarization, 90 min; active compounds read low; scaled: aluminum fluoride 0%, vehicle 100%; percent of control (FP), % (no concentration beside the values); 210,000 compounds, 0.42% hits; AID 1224905;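 active means replicate mean at 85% of control or lower, very high polarization wells dropped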;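 further: wells of about 15 µL received 100 nL stock; the first replicate is given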
GIV-Gai FP conf = confirmation of inhibitors of GIV binding to rat Galpha-i3 | actives 38% (n = 580) | shares compounds with GIV-Gai inh | FITC-GIV peptide binding to Galphai3, fluorescence polarization; stronger effect = lower value | AID 1259350 | fluorescence polarization, mP at 100 µM;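 active = inhibition score of 15 or more, meaning 100 minus mean polarization as percent of control over three replicates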
GIV Gai AS conf = confirmation of inhibitors of GIV binding to human Galpha-i3 | shares compounds with GIV-Gai inh | AlphaScreen Galphai3-GIV binding, purified proteins, 90 min; stronger effect = lower value | AlphaScreen counts at 100 µM | actives 39% (n = 580) | AID 1259351;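 active = inhibition score at or above a set limit, where the score is 100 minus the three-replicate mean percent of control signal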
Of the large screens only hits and unclear results are named; the others gave an inactive call (follow-up assays come after a bar, where they were run). Compounds with a hit are over-represented: about 0.43% of the library has one in this group of screens.

COc1ccccc1N1C(=O)/C(=C/c2ccc(-c3ccc(Br)cc3)o2)C=C1c1ccccc1	none (no result: HCMV UL50-53 inh)
CN1CCN(C(=O)c2nc(SCc3ccc(F)cc3)ncc2Cl)CC1	none
O=C1CC(c2cc(Br)ccc2F)c2scc(-c3ccc(F)cc3)c2N1 (configuration not stated)	none (no result: HCMV UL50-53 inh)
CC1=NN(c2ccccc2)C(=O)C1=C1SCCS1	none
CC1=NN(c2ccccc2)C(=O)/C1=C1/C(=O)N(c2ccccc2)N=C1C	HCMV UL50-53 inh 105.5, GIV-Gai inh 60.9 | GIV-Gai FP conf 53 | GIV Gai AS conf 17646
CCCCC1CCC(C(=O)Nc2nonc2-c2ccc(OCC)c(OCC)c2)CC1 (configuration not stated)	none (no result: HCMV UL50-53 inh)
Cc1cc(N2CCc3ccccc32)n2ncnc2n1	none
c1ccc2c(c1)CCN2c1c2c(nc3ncnn13)CCC2	none | GIV-Gai FP conf inactive | GIV Gai AS conf inactive
CCOc1ccc2nc(SCC(=O)Nc3cccc(C(=O)O)c3)sc2c1	none
CCCN(CCC)S(=O)(=O)c1ccc(C(=O)Nc2ccc3c4c(cccc24)C(=O)N3CC)cc1	none (no result: HCMV UL50-53 inh)
C=CCN(CC=C)S(=O)(=O)c1ccc(C(=O)Nc2ccc3c4c(cccc24)C(=O)N3CC)cc1	GIV-Gai inh 77.8 (no result: HCMV UL50-53 inh) | GIV-Gai FP conf inactive | GIV Gai AS conf inactive
CNC(=S)N(Cc1cc2cc(OC)ccc2[nH]c1=O)CC1CCCO1 (configuration not stated)	none
CC(C)(C)c1ccc(S(=O)(=O)N2CCc3nc(N4CCCCC4)ncc3C2)cc1	none
C=CCSc1ncc(Cl)c(C(=O)Nc2sc3c(c2C(=O)OC)CCCC3)n1	GIV-Gai inh 85.1 | GIV-Gai FP conf inactive | GIV Gai AS conf inactive
C=CCSc1ncc(Cl)c(C(=O)Nc2sc3c(c2C(=O)OC)CCC3)n1	none
COc1ccc(CCNC(=O)C2CCCN(c3nc4ccccc4o3)C2)cc1OC (configuration not stated)	none
CCOc1ccc(NC(=O)C2Nc3cc(F)ccc3S(=O)(=O)N2)cc1 (configuration not stated)	none
Cc1ccc2c(c1)c1c(n2C)C(C#N)CCC1 (configuration not stated)	none
Cc1ccc2c(c1)c1c3c(nccn32)CCC1	GIV-Gai inh 76.5 | GIV-Gai FP conf 60.6 | GIV Gai AS conf inactive
CC(C)(C)c1cc(C(=O)Oc2cncc(Cl)c2)cc(C(=O)Oc2cncc(Cl)c2)c1	none
COC(=O)C1=C(C)NC2=C(C(=O)CC(c3ccc(Cl)cc3)C2)C1c1cc(OC)c(OC)c(OC)c1 (configuration not stated)	none
O=C(NC1CCCCC1)c1ccc2ccccc2n1	none
CCOc1ccccc1-c1c(C#N)c(N)nc(OC)c1C#N	none
CCN(CC)c1ccc(-c2c(C#N)c(N)nc(OC)c2C#N)cc1	GIV-Gai inh 31.2 | GIV-Gai FP conf inactive | GIV Gai AS conf inactive
O=C(O)C(Cc1ccccc1)N1C(=O)C2C3C=CC(C3)C2C1=O (configuration not stated)	none
CSc1scc2c1C(=O)CC(C)(C)C2	none
CSc1scc2c1C(=O)/C(=C/N(C)C)CC2	GIV-Gai inh 14.2 | GIV-Gai FP conf 29 | GIV Gai AS conf 1880
Cc1ccc(NS(=O)(=O)c2ccc(CN3C(=O)c4cccnc4C3=O)s2)nc1	none
COc1ccc(-n2ccc(=O)c(-c3nc(-c4ccc(F)cc4)no3)n2)cc1	none (no result: HCMV UL50-53 inh)
COc1ccc(-c2c(-c3ccc(OC)c(OC)c3)c(C)n(C)c2C)cc1OC	none
COc1ccc(-c2nc3c(=O)n(C)c(=O)nc-3n(C)n2)cc1OC	GIV-Gai inh 57.3 | GIV-Gai FP conf 41.5 | GIV Gai AS conf 27053
Cn1nc(-c2ccc(F)cc2)nc2c(=O)n(C)c(=O)nc1-2	HCMV UL50-53 inh 83.1, GIV-Gai inh 14.8 | GIV-Gai FP conf 27.8 | GIV Gai AS conf inactive
O=c1n(Cc2ccc3c(c2)OCO3)nc2c(-c3nc(-c4ccccc4)no3)cccn12	none (no result: HCMV UL50-53 inh)
Cc1c(C(=O)NC(=S)Nc2ccc(Br)cn2)oc2ccccc12	none (no result: HCMV UL50-53 inh)
CCOc1cc(/C=C2/C(=O)NC(=O)N(c3ccccc3)C2=O)ccc1OCC(=O)O	none
Cc1ccc(C)c(C(=O)Cn2nc(C(=O)O)c3ccccc3c2=O)c1	none (no result: GIV-Gai inh)
CN1C(=O)NC2(O)C(=O)c3ccccc3C12O (configuration not stated)	none (no result: HCMV UL50-53 inh)
CCCN1C(=O)NC2(O)C(=O)c3ccccc3C12O (configuration not stated)	GIV-Gai inh 76.8 (no result: HCMV UL50-53 inh) | GIV-Gai FP conf inactive | GIV Gai AS conf inactive
O=C1COc2ccc(S(=O)(=O)N3CCCC(C(=O)NCc4ccc(Cl)cc4)C3)cc2N1 (configuration not stated)	none
O=c1c(=Nc2ccccc2O)c(=O)c2ccccc12	none (no result: GIV-Gai inh)
O=c1c(=N\O)/c(=N/O)c(=O)c2ccccc12	HCMV UL50-53 inh 97.2, GIV-Gai inh 58.7 | GIV-Gai FP conf 63.8 | GIV Gai AS conf 4729
COC(=O)C1=C(O)/C(=C/c2ccc(N(C)C)cc2)SC1=Nc1ccccc1	none (no result: HCMV UL50-53 inh)
CC(=O)Nc1ccc(NC(=O)C(C)OC(=O)c2n[nH]c(=O)c3ccccc23)cc1 (configuration not stated)	none (no result: GIV-Gai inh)
CCOC(=O)CN1C(=O)C2CC=C(Cl)CC2C1=O (configuration not stated)	GIV-Gai inh 80.7 | GIV-Gai FP conf inactive | GIV Gai AS conf inactive
O=C1C2CC=C(Cl)CC2C(=O)N1CCO (configuration not stated)	none
O=C1C(=O)c2ccccc2C(O)=C1c1ccccc1F	none
O=C1C(c2ccnc3ccccc23)=C(O)c2ccccc21	GIV-Gai inh 64.2 | GIV-Gai FP conf inactive | GIV Gai AS conf inactive
CCn1c(SC/C(O)=C(\C#N)C(=O)NCc2ccccc2)nnc1-c1cccs1	none (no result: GIV-Gai inh)
COC(=O)c1c(NC(=O)CC2Sc3ccccc3NC2=O)sc(C)c1C (configuration not stated)	none (no result: GIV-Gai inh)
COC(=O)c1c(NC(=O)CC2Nc3cc(C)c(C)cc3NC2=O)sc(C)c1C (configuration not stated)	none (no result: HCMV UL50-53 inh) | GIV-Gai FP conf 22.4 | GIV Gai AS conf inactive
N#Cc1ccccc1Cn1cc(C=C2C(=O)NC(=O)NC2=O)c2ccccc21	GIV-Gai inh 63.5 | GIV-Gai FP conf inactive | GIV Gai AS conf inactive
O=C1NC(=O)/C(=C\c2cn(Cc3ccccc3F)c3ccccc23)N1	none (no result: HCMV UL50-53 inh)
COc1ccc2c(c1)N(C)/C(=C1/SC(=S)N(C)C1=O)S2	none | GIV-Gai FP conf inactive | GIV Gai AS conf inactive
COc1ccc2c(c1)N(C1CCCCC1)/C(=C1/SC(=S)N(C)C1=O)S2	none (no result: HCMV UL50-53 inh)
Cc1sc2c(c1C)c(=O)n(Cc1ccccc1)c(=O)n2CC(=O)NC1CCCC1	none
O=C(Nc1cccc(Br)c1)N1CCCC(CN2CCc3ccccc3C2)C1 (configuration not stated)	none (no result: HCMV UL50-53 inh)
COc1ccccc1OCc1cccc(C(=O)N2CCCCCC2)c1	none
COCCn1c(C)cc(C=C2C(=O)NC(=O)NC2=O)c1C	none
COCCn1c(C)cc(C=C2C(=O)N(C)C(=S)N(C)C2=O)c1C	none (no result: HCMV UL50-53 inh) | GIV-Gai FP conf inactive | GIV Gai AS conf 21525
COC(=O)c1c(N)c(C#N)c2n1CCC2	GIV-Gai inh 80.1 (no result: HCMV UL50-53 inh) | GIV-Gai FP conf 49 | GIV Gai AS conf 20250
COC(=O)c1c(N)c(C#N)c2n1CCCC2	none
CC1CCCC(NC(=O)Cn2nnc(-c3ccc(Cl)cc3)n2)C1C (configuration not stated)	none (no result: GIV-Gai inh)

Bioassay records (PubChem BioAssay)
